Data published in patent publication US20220389009A1, “SUBSTITUTED 1,6-NAPHTHYRIDINE INHIBITORS OF CDK5” (Goldfinch Bio, Inc., priority 2019, published 2022).

Chains of the proteins cited; added tags and fusions are not shown. Residues count along the entry.
UniProt Q00535, whole entry: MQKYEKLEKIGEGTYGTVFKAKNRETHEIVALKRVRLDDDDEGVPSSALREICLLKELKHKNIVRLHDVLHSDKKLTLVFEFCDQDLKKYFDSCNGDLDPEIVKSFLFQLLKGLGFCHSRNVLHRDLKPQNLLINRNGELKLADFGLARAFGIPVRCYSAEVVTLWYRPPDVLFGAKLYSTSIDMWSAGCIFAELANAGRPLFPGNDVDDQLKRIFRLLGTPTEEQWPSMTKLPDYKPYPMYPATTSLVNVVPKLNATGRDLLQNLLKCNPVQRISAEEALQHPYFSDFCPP
UniProt Q15078, 99-307 partner limits assumed: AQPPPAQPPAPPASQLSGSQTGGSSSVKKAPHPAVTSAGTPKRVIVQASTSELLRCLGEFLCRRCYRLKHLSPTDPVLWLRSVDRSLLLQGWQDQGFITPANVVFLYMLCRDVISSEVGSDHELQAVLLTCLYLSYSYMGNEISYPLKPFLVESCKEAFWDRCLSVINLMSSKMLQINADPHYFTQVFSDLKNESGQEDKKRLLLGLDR

Columns and labels:
[1] = target: CDK2/CycA2 (Homo sapiens, UniProt P24941); assay: CDK2 mobility shift assay (enzymatic activity of CDK2/CycA2); details: read-out: CDK2 IC50; 1.25 nM CDK2/CycA2, 37 μM ATP, FL Peptide 18, 120 min at room temperature
[2] = target: CDK5/p25 (Homo sapiens, UniProt Q00535); assay: CDK5 mobility shift assay (enzymatic activity of CDK5/p25); details: for CDK5/CDK2 specificity: fold more active against CDK5 than CDK2; for IC50: read-out: CDK5 IC50, 0.154 nM CDK5/p25, FL peptide 29, 60 min at room temperature

Structure (SMILES): CN1CCC(S(=O)(=O)c2ccc3cnc(Nc4ccc5c(c4)CCNC5=O)cc3n2)CC1
- IC50 [1]: 10 to 100 nM
- CDK5/CDK2 specificity [2]: ++ (greater than 10-fold and less than or equal to 100-fold more active against CDK5 than CDK2)
- IC50 [2]: < 10 nM

Structure (SMILES): CN1CCC([C@H](O)c2ccc3cnc(Nc4ccc(-n5cccn5)cc4F)cc3n2)CC1 (single isomer, unassigned)
- IC50 [1]: > 1000 nM
- CDK5/CDK2 specificity [2]: ++ (greater than 10-fold and less than or equal to 100-fold more active against CDK5 than CDK2)
- IC50 [2]: 10 to 100 nM

Structure (SMILES): CCOC(=O)c1ccc(-c2ccc(Nc3cc4nc(S(=O)(=O)C5CCN(C)CC5)ccc4cn3)c(F)c2)cc1
- IC50 [1]: > 1000 nM
- CDK5/CDK2 specificity [2]: +++ (greater than 100-fold more active against CDK5 than CDK2)
- IC50 [2]: < 10 nM

Structure (SMILES): Cc1ccc(-c2ccc(Nc3cc4nc(S(=O)(=O)C5CCN(C)CC5)ccc4cn3)c(F)c2)cc1
- IC50 [1]: 100 to 1000 nM
- CDK5/CDK2 specificity [2]: +++ (greater than 100-fold more active against CDK5 than CDK2)
- IC50 [2]: < 10 nM

Structure (SMILES): CCN1CCC([C@@](C)(O)c2ccc3cnc(Nc4ccc(-c5cccn(C)c5=O)cc4F)cc3n2)CC1
- IC50 [1]: 100 to 1000 nM
- CDK5/CDK2 specificity [2]: ++ (greater than 10-fold and less than or equal to 100-fold more active against CDK5 than CDK2)
- IC50 [2]: 10 to 100 nM

Structure (SMILES): Cc1cccc(-c2ccc(Nc3cc4nc(S(=O)(=O)C5CCN(C)CC5)ccc4cn3)c(F)c2)c1
- IC50 [1]: > 1000 nM
- CDK5/CDK2 specificity [2]: +++ (greater than 100-fold more active against CDK5 than CDK2)
- IC50 [2]: < 10 nM

Structure (SMILES): CCc1cccc(Nc2cc3nc(S(=O)(=O)C4CCN(C)CC4)ccc3cn2)c1
- IC50 [1]: 10 to 100 nM
- CDK5/CDK2 specificity [2]: +++ (greater than 100-fold more active against CDK5 than CDK2)
- IC50 [2]: < 10 nM

Structure (SMILES): CN1CCC(S(=O)(=O)c2ccc3cnc(Nc4cccc(S(C)(=O)=O)c4)cc3n2)CC1
- IC50 [1]: 100 to 1000 nM
- CDK5/CDK2 specificity [2]: ++ (greater than 10-fold and less than or equal to 100-fold more active against CDK5 than CDK2)
- IC50 [2]: < 10 nM

Structure (SMILES): CN1CCC(Sc2ccc3cnc(Nc4ccc(-n5ccc(CO)n5)cc4F)cc3n2)C(F)(F)C1 (stereo not drawn)
- IC50 [1]: 100 to 1000 nM
- CDK5/CDK2 specificity [2]: ++ (greater than 10-fold and less than or equal to 100-fold more active against CDK5 than CDK2)
- IC50 [2]: 10 to 100 nM

Structure (SMILES): CN1CCC(C(O)(c2ccc3cnc(Nc4ccc(-c5cccn(C)c5=O)cc4F)cc3n2)C(F)(F)F)CC1 (single isomer, unassigned) [403]
- IC50 [1]: > 1000 nM
- CDK5/CDK2 specificity [2]: ++ (greater than 10-fold and less than or equal to 100-fold more active against CDK5 than CDK2)
- IC50 [2]: 100 to 1000 nM

Structure (SMILES): CN(C)[C@H]1CC[C@@H](N(CC(=O)O)c2ccc3cnc(Nc4ccc(-n5cccn5)cc4F)cc3n2)CC1 (relative stereo)
- IC50 [1]: > 1000 nM
- CDK5/CDK2 specificity [2]: + (10-fold or less more active against CDK5 than CDK2)
- IC50 [2]: > 1000 nM

Structure (SMILES): O=C(O)CN(c1ccc2cnc(Nc3ccc(-n4ccc(CO)n4)cc3F)cc2n1)C1CCN(CC(F)(F)F)CC1
- IC50 [1]: > 1000 nM
- CDK5/CDK2 specificity [2]: + (10-fold or less more active against CDK5 than CDK2)
- IC50 [2]: > 1000 nM

Structure (SMILES): CC(C(=O)O)N(c1ccc2cnc(Nc3ccc(-n4ccc(CO)n4)cc3F)cc2n1)C1CCNCC1 (stereo not drawn)
- IC50 [1]: > 1000 nM
- CDK5/CDK2 specificity [2]: + (10-fold or less more active against CDK5 than CDK2)
- IC50 [2]: > 1000 nM

Structure (SMILES): C[C@@H]1CNCC[C@H]1Sc1ccc2cnc(Nc3ccc(-n4ccc(CO)n4)cc3F)cc2n1
- IC50 [1]: 10 to 100 nM
- CDK5/CDK2 specificity [2]: ++ (greater than 10-fold and less than or equal to 100-fold more active against CDK5 than CDK2)
- IC50 [2]: < 10 nM

Structure (SMILES): CCOC(=O)c1cccc(Nc2cc3nc(SC4CCNCC4)ccc3cn2)c1
- IC50 [1]: < 10 nM
- CDK5/CDK2 specificity [2]: ++ (greater than 10-fold and less than or equal to 100-fold more active against CDK5 than CDK2)
- IC50 [2]: < 10 nM

Structure (SMILES): CO/N=C(\c1ccc2cnc(Nc3ccc(-n4cccn4)cc3F)cc2n1)C1CCN(C)CC1
- IC50 [1]: > 1000 nM
- CDK5/CDK2 specificity [2]: ++ (greater than 10-fold and less than or equal to 100-fold more active against CDK5 than CDK2)
- IC50 [2]: 100 to 1000 nM

Structure (SMILES): CN1CCC(S(=O)(=O)c2ccc3cnc(Nc4cncnc4)cc3n2)CC1
- IC50 [1]: > 1000 nM
- CDK5/CDK2 specificity [2]: + (10-fold or less more active against CDK5 than CDK2)
- IC50 [2]: 100 to 1000 nM

Structure (SMILES): CO/N=C(/c1ccc2cnc(Nc3ccc(-n4cccn4)cc3F)cc2n1)C1CCN(C)CC1
- IC50 [1]: > 1000 nM
- CDK5/CDK2 specificity [2]: ++ (greater than 10-fold and less than or equal to 100-fold more active against CDK5 than CDK2)
- IC50 [2]: > 1000 nM

Structure (SMILES): N[C@H]1CC[C@@H](N(CC(=O)O)c2ccc3cnc(Nc4ccc(-n5cccn5)cc4F)cc3n2)CC1 (relative stereo)
- IC50 [1]: > 1000 nM
- CDK5/CDK2 specificity [2]: +++ (greater than 100-fold more active against CDK5 than CDK2)
- IC50 [2]: 10 to 100 nM

Structure (SMILES): NC(=O)CN1CCC(S(=O)(=O)c2ccc3cnc(Nc4ccc(-n5ccc(CO)n5)cc4F)cc3n2)CC1
- IC50 [1]: 100 to 1000 nM
- CDK5/CDK2 specificity [2]: ++ (greater than 10-fold and less than or equal to 100-fold more active against CDK5 than CDK2)
- IC50 [2]: 10 to 100 nM

Structure (SMILES): N[C@H]1CC[C@H](S(=O)(=O)c2ccc3cnc(Nc4ccc(-n5cccn5)cc4F)cc3n2)CC1
- IC50 [1]: 100 to 1000 nM
- CDK5/CDK2 specificity [2]: ++ (greater than 10-fold and less than or equal to 100-fold more active against CDK5 than CDK2)
- IC50 [2]: < 10 nM

Structure (SMILES): C[C@@H]1CN(C)CC[C@H]1S(=O)(=O)c1ccc2cnc(Nc3ccc(-n4ccc(CO)n4)cc3F)cc2n1
- IC50 [1]: > 1000 nM
- CDK5/CDK2 specificity [2]: ++ (greater than 10-fold and less than or equal to 100-fold more active against CDK5 than CDK2)
- IC50 [2]: 10 to 100 nM

Structure (SMILES): CN1CCC(Sc2ccc3cnc(Nc4ccc(-n5ccc(C(=O)O)n5)cc4F)cc3n2)CC1
- IC50 [1]: 10 to 100 nM
- CDK5/CDK2 specificity [2]: ++ (greater than 10-fold and less than or equal to 100-fold more active against CDK5 than CDK2)
- IC50 [2]: < 10 nM

Structure (SMILES): N[C@H]1C[C@H](S(=O)(=O)c2ccc3cnc(Nc4ccc(-n5ccc(CO)n5)cc4F)cc3n2)C1 (relative stereo)
- IC50 [1]: 100 to 1000 nM
- CDK5/CDK2 specificity [2]: + (10-fold or less more active against CDK5 than CDK2)
- IC50 [2]: 100 to 1000 nM

Structure (SMILES): CCOC(=O)c1ccccc1-c1ccc(Nc2cc3nc(S(=O)(=O)C4CCN(C)CC4)ccc3cn2)c(F)c1
- IC50 [1]: > 1000 nM
- CDK5/CDK2 specificity [2]: +++ (greater than 100-fold more active against CDK5 than CDK2)
- IC50 [2]: 10 to 100 nM

Structure (SMILES): Cc1ccc(Nc2cc3nc(S(=O)(=O)C4CCN(C)CC4)ccc3cn2)cc1
- IC50 [1]: 100 to 1000 nM
- CDK5/CDK2 specificity [2]: +++ (greater than 100-fold more active against CDK5 than CDK2)
- IC50 [2]: < 10 nM

Structure (SMILES): CN1CCC(S(=O)(=O)c2ccc3cnc(Nc4ccc(-c5cccc(C#N)c5)cc4F)cc3n2)CC1
- IC50 [1]: > 1000 nM
- CDK5/CDK2 specificity [2]: +++ (greater than 100-fold more active against CDK5 than CDK2)
- IC50 [2]: < 10 nM

Structure (SMILES): O=C(O)CN(c1ccc2cnc(Nc3ccc(-n4ccc(CO)n4)cc3F)cc2n1)C1CC2CCCC(C1)N2 (stereo not drawn)
- IC50 [1]: > 1000 nM
- CDK5/CDK2 specificity [2]: + (10-fold or less more active against CDK5 than CDK2)
- IC50 [2]: 100 to 1000 nM

Structure (SMILES): COc1cc(-c2ccc(Nc3cc4nc([C@](O)(C5CCN(C)CC5)C(F)(F)F)ccc4cn3)c(F)c2)ccn1
- IC50 [1]: > 1000 nM
- CDK5/CDK2 specificity [2]: ++ (greater than 10-fold and less than or equal to 100-fold more active against CDK5 than CDK2)
- IC50 [2]: > 1000 nM

Structure (SMILES): CN1CCC([C@@](C)(O)c2ccc3cnc(Nc4ccc(-c5ccc[nH]c5=O)cc4F)cc3n2)CC1
- IC50 [1]: 100 to 1000 nM
- CDK5/CDK2 specificity [2]: ++ (greater than 10-fold and less than or equal to 100-fold more active against CDK5 than CDK2)
- IC50 [2]: < 10 nM

Structure (SMILES): COc1ccc(-c2ccc(Nc3cc4nc([C@](C)(O)C5CCN(C)CC5)ccc4cn3)c(F)c2)cc1
- IC50 [1]: 10 to 100 nM
- CDK5/CDK2 specificity [2]: ++ (greater than 10-fold and less than or equal to 100-fold more active against CDK5 than CDK2)
- IC50 [2]: < 10 nM

Structure (SMILES): CN1CCC([C@@](C)(O)c2ccc3cnc(Nc4cc(-c5cccn(C)c5=O)ccc4F)cc3n2)CC1
- IC50 [1]: 100 to 1000 nM
- CDK5/CDK2 specificity [2]: ++ (greater than 10-fold and less than or equal to 100-fold more active against CDK5 than CDK2)
- IC50 [2]: < 10 nM

Structure (SMILES): C[C@H]1C[C@H](S(=O)(=O)c2ccc3cnc(Nc4ccc(-n5ccc(CO)n5)cc4F)cc3n2)CCN1
- IC50 [1]: > 1000 nM
- CDK5/CDK2 specificity [2]: ++ (greater than 10-fold and less than or equal to 100-fold more active against CDK5 than CDK2)
- IC50 [2]: 10 to 100 nM

Structure (SMILES): OCc1ccn(-c2ccc(Nc3cc4nc(NC5CC6CCCC(C5)N6)ccc4cn3)c(F)c2)n1 (stereo not drawn)
- IC50 [1]: 100 to 1000 nM
- CDK5/CDK2 specificity [2]: + (10-fold or less more active against CDK5 than CDK2)
- IC50 [2]: 100 to 1000 nM

Structure (SMILES): CN1CCC(S(=O)(=O)c2ccc3cnc(Nc4ccc(-c5cccc(C(N)=O)c5)cc4F)cc3n2)CC1
- IC50 [1]: 100 to 1000 nM
- CDK5/CDK2 specificity [2]: +++ (greater than 100-fold more active against CDK5 than CDK2)
- IC50 [2]: < 10 nM

Structure (SMILES): C[C@@H]1CNCC[C@@H]1Sc1ccc2cnc(Nc3ccc(-n4ccc(CO)n4)cc3F)cc2n1
- IC50 [1]: 100 to 1000 nM
- CDK5/CDK2 specificity [2]: ++ (greater than 10-fold and less than or equal to 100-fold more active against CDK5 than CDK2)
- IC50 [2]: < 10 nM

Structure (SMILES): CN1CCC(Nc2ccc3cnc(Nc4ccc(-n5cccn5)cc4F)cc3n2)CC1
- IC50 [1]: 100 to 1000 nM
- CDK5/CDK2 specificity [2]: ++ (greater than 10-fold and less than or equal to 100-fold more active against CDK5 than CDK2)
- IC50 [2]: < 10 nM

Structure (SMILES): CN1CCC([C@@](C)(O)c2ccc3cnc(Nc4ccc(-c5ccccc5C#N)cc4F)cc3n2)CC1
- IC50 [1]: 10 to 100 nM
- CDK5/CDK2 specificity [2]: ++ (greater than 10-fold and less than or equal to 100-fold more active against CDK5 than CDK2)
- IC50 [2]: < 10 nM

Structure (SMILES): C[C@H]1CNCC[C@@H]1Sc1ccc2cnc(Nc3ccc(-n4ccc(CO)n4)cc3F)cc2n1
- IC50 [1]: 10 to 100 nM
- CDK5/CDK2 specificity [2]: ++ (greater than 10-fold and less than or equal to 100-fold more active against CDK5 than CDK2)
- IC50 [2]: < 10 nM

Structure (SMILES): CN1CCC(C(O)(c2ccc3cnc(Nc4ccc(-c5cccn(C)c5=O)cc4F)cc3n2)C(F)(F)F)CC1 (single isomer, unassigned) [396]
- IC50 [1]: 100 to 1000 nM
- CDK5/CDK2 specificity [2]: ++ (greater than 10-fold and less than or equal to 100-fold more active against CDK5 than CDK2)
- IC50 [2]: 10 to 100 nM
